Laboratory results taken from US9815839B2, “N-(1-(substituted-phenyl)ethyl)-9H-purin-6-amines as PI3K inhibitors” (Incyte Corporation, priority 2010, dated 2017).

Chains of the proteins cited; added tags and fusions are not shown. Lines headed by an entry give the natural chain unless they say otherwise; changes in a name come on top.
UniProt O00329, whole entry, species assumed: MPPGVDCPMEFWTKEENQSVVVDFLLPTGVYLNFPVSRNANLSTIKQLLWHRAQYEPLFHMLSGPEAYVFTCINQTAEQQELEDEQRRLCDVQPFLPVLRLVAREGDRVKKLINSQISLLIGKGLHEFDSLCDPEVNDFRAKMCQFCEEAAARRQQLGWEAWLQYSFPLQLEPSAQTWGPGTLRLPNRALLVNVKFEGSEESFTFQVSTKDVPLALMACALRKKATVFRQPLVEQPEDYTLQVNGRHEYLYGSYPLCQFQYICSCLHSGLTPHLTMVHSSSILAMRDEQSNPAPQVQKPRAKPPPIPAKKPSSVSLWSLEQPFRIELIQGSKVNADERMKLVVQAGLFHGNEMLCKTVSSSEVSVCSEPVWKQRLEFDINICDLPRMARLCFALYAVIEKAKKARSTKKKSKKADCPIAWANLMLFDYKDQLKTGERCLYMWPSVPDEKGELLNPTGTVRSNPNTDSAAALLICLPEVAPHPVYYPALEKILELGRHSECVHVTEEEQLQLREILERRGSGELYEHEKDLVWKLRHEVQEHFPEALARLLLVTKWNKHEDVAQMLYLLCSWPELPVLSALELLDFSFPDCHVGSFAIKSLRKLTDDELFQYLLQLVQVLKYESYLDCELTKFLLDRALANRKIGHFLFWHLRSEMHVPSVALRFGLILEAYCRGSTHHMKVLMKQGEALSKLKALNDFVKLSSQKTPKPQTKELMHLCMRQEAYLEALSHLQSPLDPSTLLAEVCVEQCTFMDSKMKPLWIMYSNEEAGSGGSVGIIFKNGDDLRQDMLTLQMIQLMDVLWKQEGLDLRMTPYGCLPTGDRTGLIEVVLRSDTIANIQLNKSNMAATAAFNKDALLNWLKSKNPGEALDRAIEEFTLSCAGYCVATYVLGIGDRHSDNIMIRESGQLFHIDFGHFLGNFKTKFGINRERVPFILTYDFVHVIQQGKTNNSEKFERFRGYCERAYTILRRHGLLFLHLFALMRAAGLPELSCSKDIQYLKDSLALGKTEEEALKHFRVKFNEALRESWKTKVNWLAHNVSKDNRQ

Target: T1, PI3Kδ (p110δ/p85α) (Homo sapiens, UniProt O00329)
T1 construct: purchased Millipore (Bedford, Mass.)
Test: PI3Kδ scintillation proximity assay
Format: biochemical
Details: 20 μM ATP, 4 nM PI3Kδ
From the text: Example A: PI3Kδ Scintillation Proximity Assay
Materials: [γ-^33P]ATP (10 mCi/mL) was purchased from Perkin-Elmer (Waltham, Mass.). Lipid kinase substrate, D-myo-Phosphatidylinositol 4,5-bisphosphate (PtdIns(4,5)P2)D (+)-sn-1,2-di-O-octanoylglyceryl, 3-O-phospho linked (PIP2), CAS 204858-53-7, was purchased from Echelon Biosciences (Salt Lake City, Utah). PI3Kδ (p110δ/p85α) was purchased from Millipore (Bedford, Mass.). ATP, MgCl2, DTT, EDTA, MOPS and CHAPS were purchased from Sigma-Aldrich (St. Louis, Mo.). Wheat Germ Agglutinin (WGA) YSi SPA Scintillation Beads was purchased from GE healthcare life sciences (Piscataway, N.J.).
The kinase reaction was conducted in polystyrene 384-well matrix white plate from Thermo Fisher Scientific in a final volume of 25 μL. Inhibitors were first diluted serially in DMSO and added to the plate wells before the addition of other reaction components. The final concentration of DMSO in the assay was 0.5%. The PI3K assays were carried out at room temperature in 20 mM MOPS, pH 6.7, 10 mM MgCl2, 5 mM DTT and CHAPS 0.03%. Reactions were initiated by the addition of ATP, the final reaction mixture consisted of 20 μM PIP2,20 μM ATP, 0.2 μCi [γ-^33P] ATP, 4 nM PI3Kδ. Reactions were incubated for 210 minutes and terminated by the addition of 40 μL SPA beads suspended in quench buffer: 150 mM potassium phosphate pH 8.0, 20% glycerol. 25 mM EDTA, 400 µM ATP. The final concentration of SPA beads is 1.0 mg/mL. After the plate sealing, plates were shaken overnight at room temperature and centrifuged at 1800 rpm for 10 minutes, the radioactivity of the product was determined by scintillation counting on Topcount (Perkin-Elmer). IC50 determination was performed by fitting the curve of percent control activity versus the log of the inhibitor concentration using the GraphPad Prism 3.0 software.

Row | Structure (SMILES) | IC50 [nM]
1 | COc1c(C(C)Nc2ncnc3[nH]cnc23)cc(Cl)c(C)c1-c1ccc(S(C)(=O)=O)cc1 (single isomer, unassigned) [Example 116, N-{1-[5-chloro-2-methoxy-6-methyl-4′-(methylsulfonyl)biphenyl-3-yl]ethyl}-9H-purin-6-amine] | < 50
2 | COc1c(C(C)Nc2ncnc3[nH]cnc23)cc(Cl)c(C)c1-c1ccc(S(C)(=O)=O)cc1 (stereo not shown) [Example 32, N-{1-[5-chloro-2-methoxy-6-methyl-4′-(methylsulfonyl)biphenyl-3-yl]ethyl}-9H-purin-6-amine] | < 50
3 | COc1c(C(C)Nc2ncnc3[nH]cnc23)cc(Cl)c(C)c1-c1cncc(S(C)(=O)=O)c1 (stereo not shown) [Example 56, N-(1-{5-chloro-2-methoxy-4-methyl-3-[5-(methylsulfonyl)pyridin-3-yl]phenyl}ethyl)-9H-purin-6-amine] | < 50
4 | Cc1c(Cl)cc(C(C)Nc2ncnc3[nH]cnc23)c(-c2cccc(F)c2)c1-c1cnn(C)c1 (stereo not shown) [Example 73, N-{1-[4-chloro-3′-fluoro-5-methyl-6-(1-methyl-1H-pyrazol-4-yl)biphenyl-2-yl]ethyl}-9H-purin-6-amine] | < 50
